Laboratory results published in patent publication US5080884A, “Hydrocarbylphenyl diaminodithiol radionuclide complexes and their use in imaging” (Medi-Physics, Inc., priority 1991, dated 1992).
Like-named read-outs stand apart in the source and are kept apart here.

How the values were obtained:
[1] = Biological distribution of Tc-99m complexes in rats (pentobarbital anesthesia); assay type: in vivo, Female Sprague-Dawley rats; conditions: average of 2 rats; for Blood, % Injected Dose/Gram Tissue / Brain, % Injected Dose/Gram Tissue / Heart, % Injected Dose/Gram Tissue: pentobarbital anesthesia; for Brain:Blood / Heart:Blood: ratio
Experimental: Distribution of the Tc-99m labeled compounds was evaluated in rats. Female Sprague-Dawley rats weighing 140 to 220 g (average 170 g) were anesthetized with sodium pentobarbital and were injected in a tail vein with from 0.05 to 10 mCi of the Tc-99m labeled complex in a volume of 0.2 to 0.5 ml. At least two rats were injected for each time point.
The animals were sacrificed at 5 and 30 minutes after injection and selected organs were removed; the tails were discharged to avoid interference from the injection site. The radioactivity in each organ was measured at a standard geometry with a […] sodium iodide scintillation detector adjusted for the 140 KeV emission of Tc-99m. The organs were also weighed to one hundredth of a gram and the activity was calculated as a percent of administered dose per gram.

[2] = Electrophoresis of Tc-99m complex (NaH2PO4, pH 4.5); assay type: physicochemical; conditions: 0.05 M NaH2PO4, pH 4.5, 300 volts
[3] = 5 min after i.v. (tail vein) injection
[4] = 30 min after i.v. (tail vein) injection

## Tc-99m complex of 2-(2-mercapto-2-methylpropylamino)-1-[2-ethylthio-2-methylpropylamino]benzene [Example 34]
[1]; [3]
  Blood, % Injected Dose/Gram Tissue: 0.14 % Injected Dose/Gram Tissue
  Brain, % Injected Dose/Gram Tissue: 0.88 % Injected Dose/Gram Tissue
  Heart, % Injected Dose/Gram Tissue: 2.47 % Injected Dose/Gram Tissue
[1]; [4]
  Blood, % Injected Dose/Gram Tissue: 0.11 % Injected Dose/Gram Tissue
  Brain, % Injected Dose/Gram Tissue: 0.71 % Injected Dose/Gram Tissue
  Heart, % Injected Dose/Gram Tissue: 1.02 % Injected Dose/Gram Tissue
[1]; 5 min after i.v. injection
  Brain:Blood: 6.26
  Heart:Blood: 17.48
[1]; 30 min after i.v. injection
  Brain:Blood: 6.21
  Heart:Blood: 8.94
[2]; 45 min
  Electrophoresis: neutral
octanol/H2O NaH2PO4 pH 7.4
  Partition coefficient: 81

## Tc-99m complex of 2-(2-mercapto-2-methylpropylamino)-1-[2-propylthio-2-methylpropylamino]-benzene [Example 23]
[1]; [3]
  Blood, % Injected Dose/Gram Tissue: 0.35 % Injected Dose/Gram Tissue
  Brain, % Injected Dose/Gram Tissue: 0.75 % Injected Dose/Gram Tissue
  Heart, % Injected Dose/Gram Tissue: 2.43 % Injected Dose/Gram Tissue
[1]; [4]
  Blood, % Injected Dose/Gram Tissue: 0.23 % Injected Dose/Gram Tissue
  Brain, % Injected Dose/Gram Tissue: 0.69 % Injected Dose/Gram Tissue
  Heart, % Injected Dose/Gram Tissue: 1.01 % Injected Dose/Gram Tissue
[1]; 5 min after i.v. injection
  Brain:Blood: 2.11
  Heart:Blood: 6.86
[1]; 30 min after i.v. injection
  Brain:Blood: 3.06
  Heart:Blood: 4.44
1-octanol/0.1 M phosphate buffer pH 7.4
  Partition coefficient: 33

## Tc-99m complex of 1-(2-Allylthio-2-methylpropylamino]-2-(2-mercapto-2-methylpropylamino) benzene [Example 15]
[1]; [3]
  Blood, % Injected Dose/Gram Tissue: 0.27 % Injected Dose/Gram Tissue
  Brain, % Injected Dose/Gram Tissue: 0.99 % Injected Dose/Gram Tissue
  Heart, % Injected Dose/Gram Tissue: 4.37 % Injected Dose/Gram Tissue
[1]; [4]
  Blood, % Injected Dose/Gram Tissue: 0.13 % Injected Dose/Gram Tissue
  Brain, % Injected Dose/Gram Tissue: 0.75 % Injected Dose/Gram Tissue
  Heart, % Injected Dose/Gram Tissue: 2.25 % Injected Dose/Gram Tissue
[1]; 5 min after i.v. injection
  Brain:Blood: 3.61
  Heart:Blood: 15.97
[1]; 30 min after i.v. injection
  Brain:Blood: 5.63
  Heart:Blood: 16.77
[2]; 30 min
  Electrophoresis: neutral
